Consider one compound from patent US8959984B2, “Proteome-wide quantification of small molecule binding to cellular target proteins” (priority 2007, dated 2015).

Chains of the proteins cited; added tags and fusions are not shown. Lines headed by an entry give the natural chain unless they say otherwise; changes in a name come on top.
UniProt P54619: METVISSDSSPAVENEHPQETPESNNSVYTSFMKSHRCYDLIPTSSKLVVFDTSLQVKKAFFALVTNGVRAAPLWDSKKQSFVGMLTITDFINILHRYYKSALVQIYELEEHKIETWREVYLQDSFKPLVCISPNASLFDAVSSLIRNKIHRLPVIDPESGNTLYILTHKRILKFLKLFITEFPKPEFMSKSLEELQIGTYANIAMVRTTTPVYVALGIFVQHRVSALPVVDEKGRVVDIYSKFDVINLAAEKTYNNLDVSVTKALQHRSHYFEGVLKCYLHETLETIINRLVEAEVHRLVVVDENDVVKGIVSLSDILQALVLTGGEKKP
UniProt Q6P5Z2: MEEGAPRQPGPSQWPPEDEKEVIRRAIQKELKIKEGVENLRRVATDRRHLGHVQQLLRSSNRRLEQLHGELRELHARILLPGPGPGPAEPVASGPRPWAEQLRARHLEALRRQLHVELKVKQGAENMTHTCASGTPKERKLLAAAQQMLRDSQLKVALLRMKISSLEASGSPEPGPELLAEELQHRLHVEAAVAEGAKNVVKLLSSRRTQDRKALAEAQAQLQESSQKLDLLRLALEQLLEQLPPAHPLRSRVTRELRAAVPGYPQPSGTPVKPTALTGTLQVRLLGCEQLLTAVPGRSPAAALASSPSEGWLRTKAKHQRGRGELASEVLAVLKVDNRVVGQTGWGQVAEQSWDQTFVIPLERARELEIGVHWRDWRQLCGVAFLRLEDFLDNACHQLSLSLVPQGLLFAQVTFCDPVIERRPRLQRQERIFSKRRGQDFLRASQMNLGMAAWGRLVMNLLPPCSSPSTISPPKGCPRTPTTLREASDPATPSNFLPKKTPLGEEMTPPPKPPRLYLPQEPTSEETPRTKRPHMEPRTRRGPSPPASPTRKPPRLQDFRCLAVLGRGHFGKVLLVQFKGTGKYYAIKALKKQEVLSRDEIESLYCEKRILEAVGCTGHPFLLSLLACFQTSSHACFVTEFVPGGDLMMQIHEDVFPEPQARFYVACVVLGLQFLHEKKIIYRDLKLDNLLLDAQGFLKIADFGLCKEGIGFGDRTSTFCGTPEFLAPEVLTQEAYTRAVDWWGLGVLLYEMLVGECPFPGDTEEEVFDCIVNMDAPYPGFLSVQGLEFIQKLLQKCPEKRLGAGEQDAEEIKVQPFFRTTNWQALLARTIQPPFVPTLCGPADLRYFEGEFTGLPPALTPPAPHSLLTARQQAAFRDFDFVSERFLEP
UniProt Q9NSY1, whole entry: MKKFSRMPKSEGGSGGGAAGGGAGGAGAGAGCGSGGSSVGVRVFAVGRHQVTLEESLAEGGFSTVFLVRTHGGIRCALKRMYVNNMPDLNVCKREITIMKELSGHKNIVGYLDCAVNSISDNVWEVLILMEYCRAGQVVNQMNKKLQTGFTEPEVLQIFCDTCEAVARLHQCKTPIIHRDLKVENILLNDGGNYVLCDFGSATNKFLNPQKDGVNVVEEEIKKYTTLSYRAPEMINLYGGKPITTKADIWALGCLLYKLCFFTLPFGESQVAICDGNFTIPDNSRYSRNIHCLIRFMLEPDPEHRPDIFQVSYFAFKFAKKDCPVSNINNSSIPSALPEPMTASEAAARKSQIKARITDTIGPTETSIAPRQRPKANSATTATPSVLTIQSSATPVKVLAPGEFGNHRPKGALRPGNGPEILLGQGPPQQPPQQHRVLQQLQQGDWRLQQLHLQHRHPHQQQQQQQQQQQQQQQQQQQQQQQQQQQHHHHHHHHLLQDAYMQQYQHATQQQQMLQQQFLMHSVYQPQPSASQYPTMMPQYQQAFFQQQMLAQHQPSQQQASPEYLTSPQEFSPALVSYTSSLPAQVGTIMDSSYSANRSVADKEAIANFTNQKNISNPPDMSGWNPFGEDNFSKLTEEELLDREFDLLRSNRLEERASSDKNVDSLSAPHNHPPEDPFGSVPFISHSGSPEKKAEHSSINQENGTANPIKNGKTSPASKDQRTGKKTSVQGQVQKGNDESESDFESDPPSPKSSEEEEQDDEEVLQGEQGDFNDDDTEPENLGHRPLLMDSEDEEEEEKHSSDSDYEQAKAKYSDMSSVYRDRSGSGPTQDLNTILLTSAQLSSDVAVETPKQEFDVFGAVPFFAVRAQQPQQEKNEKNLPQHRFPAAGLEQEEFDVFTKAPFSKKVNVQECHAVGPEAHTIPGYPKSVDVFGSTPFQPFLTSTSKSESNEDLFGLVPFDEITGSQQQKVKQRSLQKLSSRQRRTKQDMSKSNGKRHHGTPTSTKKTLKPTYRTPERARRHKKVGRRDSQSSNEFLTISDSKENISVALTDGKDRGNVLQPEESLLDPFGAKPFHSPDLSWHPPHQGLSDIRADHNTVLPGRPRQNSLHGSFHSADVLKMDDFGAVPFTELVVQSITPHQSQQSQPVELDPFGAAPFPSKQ
UniProt Q9Y233: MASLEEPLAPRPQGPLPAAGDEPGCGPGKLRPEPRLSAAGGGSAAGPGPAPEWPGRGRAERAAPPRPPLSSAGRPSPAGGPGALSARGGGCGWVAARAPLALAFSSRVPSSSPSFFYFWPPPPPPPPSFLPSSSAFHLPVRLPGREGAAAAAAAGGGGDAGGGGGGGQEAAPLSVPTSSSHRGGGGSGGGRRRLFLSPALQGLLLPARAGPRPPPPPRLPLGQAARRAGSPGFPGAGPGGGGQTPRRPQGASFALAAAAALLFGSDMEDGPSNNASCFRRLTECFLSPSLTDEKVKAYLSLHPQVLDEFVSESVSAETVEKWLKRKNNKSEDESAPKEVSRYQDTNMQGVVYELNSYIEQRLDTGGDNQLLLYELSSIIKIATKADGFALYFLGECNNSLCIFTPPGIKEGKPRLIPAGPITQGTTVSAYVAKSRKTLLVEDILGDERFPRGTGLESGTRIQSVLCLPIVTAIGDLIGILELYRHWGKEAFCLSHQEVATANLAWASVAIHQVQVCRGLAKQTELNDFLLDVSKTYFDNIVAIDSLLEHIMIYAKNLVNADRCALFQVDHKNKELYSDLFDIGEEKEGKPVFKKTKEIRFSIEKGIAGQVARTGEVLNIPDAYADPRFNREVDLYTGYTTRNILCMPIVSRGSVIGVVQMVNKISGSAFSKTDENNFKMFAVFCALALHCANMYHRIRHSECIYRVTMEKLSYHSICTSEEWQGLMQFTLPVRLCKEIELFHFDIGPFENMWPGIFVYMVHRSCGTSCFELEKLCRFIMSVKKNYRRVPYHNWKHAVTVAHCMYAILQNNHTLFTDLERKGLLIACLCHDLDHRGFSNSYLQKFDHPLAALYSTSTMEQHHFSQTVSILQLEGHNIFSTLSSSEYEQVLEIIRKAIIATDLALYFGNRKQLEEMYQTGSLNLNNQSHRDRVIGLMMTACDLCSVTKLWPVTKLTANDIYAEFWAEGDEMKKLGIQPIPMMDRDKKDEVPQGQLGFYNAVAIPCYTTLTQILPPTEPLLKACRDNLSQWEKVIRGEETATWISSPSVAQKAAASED

Assay in all cases: Ki determination for immobilized VI16742: two consecutive incubations, control beads, ligand concentration and incubation time controls (Tables 7, 8)
Holding throughout (assay type): binding

Assay [1] has as its target T1, cellular target proteins in HeLa cell lysate (Homo sapiens, UniProt P33981).
T1 sequence (P33981 1-857): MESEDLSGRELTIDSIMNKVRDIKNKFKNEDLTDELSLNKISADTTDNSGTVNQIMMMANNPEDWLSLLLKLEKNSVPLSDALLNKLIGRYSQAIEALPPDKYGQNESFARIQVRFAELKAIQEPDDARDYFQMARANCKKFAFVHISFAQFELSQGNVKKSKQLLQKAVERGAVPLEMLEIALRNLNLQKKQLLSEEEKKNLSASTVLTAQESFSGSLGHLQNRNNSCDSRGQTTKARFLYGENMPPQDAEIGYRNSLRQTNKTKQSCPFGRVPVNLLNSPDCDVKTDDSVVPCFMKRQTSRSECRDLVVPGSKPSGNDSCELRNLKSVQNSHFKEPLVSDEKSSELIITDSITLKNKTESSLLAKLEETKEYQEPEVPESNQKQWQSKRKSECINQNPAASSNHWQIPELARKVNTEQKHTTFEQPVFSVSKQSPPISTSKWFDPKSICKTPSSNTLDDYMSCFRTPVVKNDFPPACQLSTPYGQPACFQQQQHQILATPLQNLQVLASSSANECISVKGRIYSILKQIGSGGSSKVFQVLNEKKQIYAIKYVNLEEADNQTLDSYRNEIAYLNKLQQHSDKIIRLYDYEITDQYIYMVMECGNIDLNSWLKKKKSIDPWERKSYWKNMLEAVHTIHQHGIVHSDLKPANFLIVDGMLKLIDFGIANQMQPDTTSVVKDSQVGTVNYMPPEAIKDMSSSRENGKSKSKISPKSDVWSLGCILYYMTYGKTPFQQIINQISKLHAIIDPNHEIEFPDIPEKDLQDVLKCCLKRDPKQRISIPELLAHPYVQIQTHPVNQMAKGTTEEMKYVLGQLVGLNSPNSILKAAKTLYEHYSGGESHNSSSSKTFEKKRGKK

For assay [2], the target named is cellular target proteins in HeLa cell lysate (Homo sapiens, UniProt P54619). The conditions noted are these: Ki (VI16742), PRKAG1 IPI00413318.
Assay [3] deals with T2, cellular target proteins in HeLa cell lysate (Homo sapiens, UniProt Q13043).
T2 sequence (Q13043 1-487): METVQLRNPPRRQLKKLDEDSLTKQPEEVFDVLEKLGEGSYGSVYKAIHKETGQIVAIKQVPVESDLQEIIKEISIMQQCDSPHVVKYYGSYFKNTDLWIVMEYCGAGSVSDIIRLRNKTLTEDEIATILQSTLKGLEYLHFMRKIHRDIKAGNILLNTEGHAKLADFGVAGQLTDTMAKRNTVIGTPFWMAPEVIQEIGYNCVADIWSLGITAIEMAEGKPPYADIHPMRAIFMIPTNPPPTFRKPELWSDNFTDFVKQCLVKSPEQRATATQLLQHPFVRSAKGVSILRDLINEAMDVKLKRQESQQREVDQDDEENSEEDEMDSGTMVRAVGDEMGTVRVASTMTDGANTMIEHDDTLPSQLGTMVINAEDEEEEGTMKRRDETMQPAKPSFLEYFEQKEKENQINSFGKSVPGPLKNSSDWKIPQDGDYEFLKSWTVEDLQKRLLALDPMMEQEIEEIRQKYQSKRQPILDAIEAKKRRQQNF
The note with it: Ki (VI16742), MST1 (STK4) IPI00011488.

Assay [4] deals with cellular target proteins in HeLa cell lysate (Homo sapiens, UniProt Q6P5Z2). The conditions noted are these: Ki (VI16742), PKN3 IPI00413780.
For assay [5], the target named is cellular target proteins in HeLa cell lysate (Homo sapiens, UniProt Q9NSY1). The note with it: Ki (VI16742), BIKE (BMP2K) IPI00337426.
In assay [6] the target is cellular target proteins in HeLa cell lysate (Homo sapiens, UniProt Q9Y233). The note with it: Ki (VI16742), PDE10A IPI00215786.

As to `CC(C)n1c(=O)ccc2cnc(Nc3ccc(OCCN)cc3)nc21` [V16742], the Ki in assay [1] is 18.4 µM; in assay [2], 17.9 µM; in assay [3], 28.9 µM; in assay [4], 30.9 µM; in assay [5] it was 9.92 µM; in assay [6], 2.58 µM.

For orientation: Ki means a dissociation constant, usually derived from enzyme kinetics or from competition with a known ligand. Low readings indicate a stronger hold on the target, high ones a looser hold on the target.
